Data on 41 compounds can be found in US20130123253A1, “MODULATORS OF CENTRAL NERVOUS SYSTEM NEUROTRANSMITTERS” (HUMAN BIOMOLECULAR RESEARCH INSTITUTE, priority 2004, published 2013).

By UniProt entry, the sequences of proteins in these tests, tags left out.
UniProt P31645, whole entry: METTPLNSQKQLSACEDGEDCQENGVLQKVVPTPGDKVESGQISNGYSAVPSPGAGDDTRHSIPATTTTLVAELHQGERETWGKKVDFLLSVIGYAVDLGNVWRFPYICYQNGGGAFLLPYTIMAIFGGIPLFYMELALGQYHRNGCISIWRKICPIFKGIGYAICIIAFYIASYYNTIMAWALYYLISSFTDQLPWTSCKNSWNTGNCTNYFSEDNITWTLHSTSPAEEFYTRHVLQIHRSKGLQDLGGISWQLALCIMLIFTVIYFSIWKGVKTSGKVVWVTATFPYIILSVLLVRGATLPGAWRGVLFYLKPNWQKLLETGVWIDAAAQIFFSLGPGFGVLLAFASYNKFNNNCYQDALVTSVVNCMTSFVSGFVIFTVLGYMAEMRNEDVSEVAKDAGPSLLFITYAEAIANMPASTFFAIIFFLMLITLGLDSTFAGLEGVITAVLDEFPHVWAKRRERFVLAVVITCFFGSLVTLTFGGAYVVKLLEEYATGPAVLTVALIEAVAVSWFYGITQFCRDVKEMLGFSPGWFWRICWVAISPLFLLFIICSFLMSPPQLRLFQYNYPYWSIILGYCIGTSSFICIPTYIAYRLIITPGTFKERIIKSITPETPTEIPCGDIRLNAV

Each structure is given as a SMILES string. Where “and” joins values, the source holds several entries; their conditions need not be identical. Equal entries are not always repeated. Where two headings read alike, the source gives them in different places.

Assay [1] deals with T1, human serotonin transporter (hSERT) (Homo sapiens, UniProt P31645). In words: cell-based.
Assay [2] concerns the target T1, human serotonin transporter (hSERT). Kind of assay: Inhibition of [125I]RTI-55 binding in HEK-hSERT cell membranes.
The target is the same in assay [3].
Setting [4] is: Reuptake (kup, nM) hSERT, Table 2.
Where [5] appears, read: Binding (ki, nM) hSERT, Table 2.
[6] abbreviates: Reuptake (Kr, nM) hSERT, Table 1.
[7] abbreviates: Binding (Ki, nM) hSERT, Table 1.
[8] abbreviates: read-out: Binding (Ki, nM) hSERT, Table 1.
The mark [9] stands for this setting: read-out: Binding (Ki, nM) hSERT.

Usually IC50 stands for the concentration at which inhibition is half-maximal. The Ki is a dissociation constant, usually derived from enzyme kinetics or from competition with a known ligand.

For the compound `COc1ccc(F)cc1CC[C@H]1CC[C@H](CN)O1` (relative stereo) [Compound 18i, Trans-2-(aminomethyl)-5-(2′-methoxy-5′-fluorophenethyl)tetrahydrofuran], the IC50 in assay [1] (Reuptake (IC50, nM) hSERT) is 2.5 nM. Besides, the affinity in assay [2] (Binding (Ki, nM) hSERT) corresponds to a Ki of 3.2 nM. The matching figures for `COc1ccc(F)cc1CC[C@@H]1CC[C@H](CN)O1` (relative stereo) [Compound 18j, Cis-2-(aminomethyl)-5-(2′-methoxy-5′-fluorophenethyl)tetrahydrofuran]: 11.7 nM and 21.9 nM.

Regarding `COc1ccc(F)cc1[C@@H]1CC[C@@H](CCNCC[C@@H]2CC[C@@H](c3cc(F)ccc3OC)O2)O1` (relative stereo) [N,N-bis (trans-5′-(2″- methoxy-5″-fluoro-phenyl-2′-tetra-hydrofuryl)ethyl) Amine], the results for the Ki in assay [1] (setting [4]) and in assay [2] (setting [5]) were 375 nM and 148 nM, respectively. As for `COc1ccc(C2=NN(CCCCCNCCC(Oc3ccc(C(F)(F)F)cc3)c3ccccc3)C(=O)C3CC=CCC23)cc1OC` (single isomer, unassigned) [23(S), 4-(3,4-Dimethoxy-phenyl)-2-{5-[3-phenyl-3-(4-trifluoromethyl-phenoxy)-propylamino]-pentyl}-4a,5,8,8a-tetrahydro-2H-phthalazin-1-one], the IC50 in assay [1] (Reuptake (IC50, nM) hSERT) is more than 5740 nM. Besides, the affinity in assay [2] (Binding (Ki, nM) hSERT), expressed as Ki, was 1210 ± 146 nM. In the case of `COc1ccc(C2=NN(CCCCCNCCC(Oc3ccc(C(F)(F)F)cc3)c3ccccc3)C(=O)C3CC=CCC23)cc1OC` (single isomer, unassigned) [24(R), 4-(3,4-Dimethoxy-phenyl)-2-{5-[3-phenyl-3-(4-trifluoromethyl-phenoxy)-propylamino]-pentyl}-4a,5,8,8a-tetrahydro-2H-phthalazin-1-one], the IC50 in assay [1] (Reuptake (IC50, nM) hSERT) was 40 ± 15 nM. This compound also gave a Ki in assay [2] (Binding (Ki, nM) hSERT) of 82 ± 22 nM. The compound `COc1ccc(F)cc1CCC1CCC(CCNCCCCCN2N=C(c3ccc(OC)c(OC)c3)C3CC=CC[C@H]3C2=O)O1` (stereo in doubt) [Compound 21, 4-(3,4-Dimethoxy-phenyl)-2-[5-(2-{5-[2-(5-fluoro-2-methoxy-phenyl)-ethyl]-thtrahydro-furan-2-yl}-ethylamino)-pentyl]-4,5,8,8a-tetrahydro-2H-phthalazin-1-one] yielded an IC50 in assay [1] of 286 ± 134 nM. In addition, in assay [2] (Binding (Ki, nM) hSERT, Table 3, mixtures of diastereomers), the Ki stood at 80 ± 7 nM. Regarding `NCC1CCC(CCC2CCCO2)O1` (stereo not drawn) [2-(amino-methyl)-5-(-2″- tetrahydrofuryl-2′-ethyl)tetra-hydrofuran.], the Ki in assay [1] (setting [6]) is more than 10000 nM; in assay [2] (setting [7]), 10300 nM. Regarding `NCCC1CCC(CCc2cccc3ccccc23)O1` (stereo not drawn) [2-(aminoethyl)-5-(1′-naphethyl) tetrahydrofuran], the Ki was 73 nM in assay [1] (setting [6]); 30 nM and 39 nM in assay [2] (setting [7]). With `NCCC1CCC(CCc2ccc3ccccc3c2)O1` (stereo not drawn) [2-(aminoethyl)-5-(2′-naphthylethyl) tetrahydrofuran], the Ki amounted to 712 nM in assay [1] (setting [6]) and 489 nM in assay [2] (setting [7]). `NCCC1CCC(CCc2cccnc2)O1` (stereo not drawn) [2-(aminoethyl)-5-(3′-pyridylethyl) tetrahydrofuran]: the figures for the Ki in assay [1] (setting [6]) and in assay [2] (setting [7]) were 5580 nM and 5690 nM, respectively. In the case of `Cc1cc(CCC2CCC(CCN)O2)ccc1F` (stereo not drawn) [2-(aminoethyl)-5-(4′-fluoro-3′-methylphenethyl) tetrahydrofuran], the inhibition constant Ki in assay [1] (setting [6]) was 30 nM; in assay [2] (setting [8]), 688 nM. In the case of `NCCC1CCC(CCc2ccc(F)cc2)O1` (stereo not drawn) [2-(aminoethyl)-5-(4′-fluoro-phenethyl) tetrahydrofuran], the Ki amounted to 278 nM in assay [1] (setting [6]) and 538 nM in assay [2] (setting [7]). Consider `NCCC1CCC(CCc2ccc(O)cc2)O1` (stereo not drawn) [2-(aminoethyl)-5-(4′-hydroxy-phenethyl) tetrahydrofuran], for which the Ki was determined as 4040 nM in assay [1] (setting [6]) and 7480 nM in assay [2] (setting [8]). As for `COc1ccc(CCC2CCC(CCN)O2)cc1` (stereo not drawn) [2-(aminoethyl)-5-(4′-methoxy-phenethyl) tetrahydrofuran], the Ki in assay [1] (setting [6]) was 628 nM; in assay [2] (setting [7]) it was 2520 nM. The matching figures for `Cc1ccc(CCC2CCC(CCN)O2)cc1` (stereo not drawn) [2-(aminoethyl)-5-(4′-methylphenethyl) tetrahydrofuran]: 3760 nM and 3740 nM.

With `NCCC1CCC(CCc2ccc(-c3ccccc3)cc2)O1` (stereo not drawn) [2-(aminoethyl)-5-(4′-phenylphenethyl) tetrahydrofuran], the Ki in assay [1] (setting [6]) was 2990 nM; in assay [2] (setting [7]), 3590 nM. The matching figures for `CC(C)(C)c1ccc(CCC2CCC(CCN)O2)cc1` (stereo not drawn) [2-(aminoethyl)-5-(4′-t-butyl-phenethyl) tetrahydrofuran]: more than 10000 nM and more than 10000 nM.

Consider `NCCC1CCC(CCc2ccc(OC(F)(F)F)cc2)O1` (stereo not drawn) [2-(aminoethyl)-5-(4′-trifluoro-methoxyphenethyl)tetra-hydrafuran], for which the Ki in assay [1] (setting [6]) was found to be 519 nM; in assay [2] (setting [7]), 1800 nM. The matching figures for `NCCC1CCC(CCC2CCCCC2)O1` (stereo not drawn) [2-(aminoethyl)-5-(cyclohexylethyl) tetrahydrofuran]: 217 nM and more than 10000 nM. `COc1ccc2ccccc2c1C1CCC(CN)O1` (stereo not drawn) [2-(aminomethyl)-5-(2′-methoxy-1′-naphethyl) tetahydrofuran]: the Ki in assay [1] (setting [6]) was 78 nM; in assay [2] (setting [7]), 843 nM. Consider `NCC1CCC(c2ccc3ccccc3c2)O1` (stereo not drawn) [2-(aminomethyl)-5-(2′-naphthyl) tetrahydrofuran], for which the Ki worked out at 4 nM in assay [1] (setting [6]) and 45 nM in assay [2] (setting [8]). In the case of `Cc1ccc(C2CCC(CN)O2)cc1F` (stereo not drawn) [2-(aminomethyl)-5-(3′-fluoro-4′-methylphenyl) tetrahydrofuran], the Ki in assay [1] (setting [6]) amounted to 178 nM; in assay [2] (setting [7]), 2670 nM. Turning to `NCC1CCC(CCc2cccnc2)O1` (stereo not drawn) [2-(aminomethyl)-5-(3′-pyridylethyl) tetrahydrofuran], the Ki in assay [1] (setting [6]) turned out to be 2550 nM; in assay [2] (setting [8]) it was 4550 nM. Take `NCC1CCC(c2ccc(Br)cc2)O1` (stereo not drawn) [2-(aminomethyl)-5-(4′-bromophenyl) tetrahydrofuran]: the Ki in assay [1] (Reuptake (Kr, nM) hSERT) is 50 nM; in assay [2] (setting [9]), 1110 nM. The corresponding values for `NCC1CCC(c2ccc(Cl)cc2)O1` (stereo not drawn) [2-(aminomethyl)-5-(4′-chlorophenyl) tetrahydrafuran] are 32 nM and 1100 nM. Take `Cc1cc(CCC2CCC(CN)O2)ccc1F` (stereo not drawn) [2-(aminomethyl)-5-(4′-fluoro-3′-methylphenethyl) tetrahydrouran]: the results for the Ki in assay [1] (setting [6]) and in assay [2] (setting [7]) were 125 nM and 256 nM, respectively. As for `NCC1CCC(CCc2c(F)c(F)c(F)c(F)c2F)O1` (stereo not drawn) [2-(aminomethyl)-5-(pentafluoro-phenethyl) tetrahydrofuran], the results for the Ki in assay [1] (setting [6]) and in assay [2] (setting [8]) were 225 nM and 2130 nM, respectively.

With `NCC1CCC(C2CCCCC2)O1` (stereo not drawn) [2-(aminomethyl)-5-cyclohexyl tetrahydrofuran], the Ki is 939 nM in assay [1] (setting [6]) and more than 10000 nM in assay [2] (setting [7]). For `COc1ccc(F)cc1CCC1CCC(CN)O1` (stereo not drawn) [2-aminomethyl-5-(2′-methoxy-5′-fluorophenethyltetrahydrofuran], the Ki in assay [1] (Reuptake (Kr, nM) hSERT) was found to be 1.64 nM; in assay [2] (Binding (Ki, nM) hSERT), 609 nM. The compound `NCC1CCC(c2ccc3ccccc3c2)O1` (stereo not drawn) [Compound 15c, 2-(Aminomethyl)-5-(2′-naphthyl)tetrahydrofuran] came in with an IC50 in assay [1] of 4.1 nM. Moreover, the Ki in assay [2] (read-out: hSERT binding Ki, text of Example 28) was 45 nM.

`NCC1CCC(c2cccc3ccccc23)O1` (stereo not drawn) [Compound 15e, 2-(Aminomethyl)-5-(1′-naphthyl)tetrahydrofuran]: in assay [3] (read-out: Reuptake (IC50, nM) hSERT), the IC50 came out at 24 ± 1.2 nM. `CC(C)(C)c1ccc(C2CCC(CN)O2)cc1` (stereo not drawn) [Compound 15k, 2-Aminomethyl-5-(p-t-butylphenyl)tetrahydrofuran]: the IC50 in assay [3] (read-out: Reuptake (IC50, nM) hSERT, Table 9, mean ± SEM) stood at 636 ± 191 nM; in assay [3] (read-out: hSERT reuptake IC50, text of Example 28), 636 nM. In the case of `NCCC1CCC(CCc2ccccc2)O1` (stereo not drawn) [MM-II-41], the inhibition constant Ki in assay [1] (setting [6]) was 161 nM and 1590 nM; in assay [2] (setting [7]), 1300 nM and 2730 nM. With `COc1ccc(F)cc1C1CCC(CCNCCC2CCC(c3cc(F)ccc3OC)O2)O1` (stereo not drawn) [N,N-bis (cis-5′-(2″- methoxy-5″-fluoro-phenyl-2′-tetrahydro-furyl)ethyl) Amine], the Ki in assay [1] (setting [4]) amounted to 306 nM; in assay [2] (setting [5]), 150 nM.

For `c1ccc2cc(C3CCC(CCNCCC4CCC(c5ccc6ccccc6c5)O4)O3)ccc2c1` (stereo not drawn) [N,N-bis(5′-(2″- naphthyl-2′-tetrahydro-furyl)ethyl) Amine], the values for the Ki in assay [1] (setting [4]) and in assay [2] (setting [5]) were 3360 nM and 252 nM, respectively.

Regarding `c1cncc(CCC2CCC(CCNCCC3CCC(CCc4cccnc4)O3)O2)c1` (stereo not drawn) [N,N-bis(5′-(3″- pyridyl-ethyl)-2′-tetra-hydro-furylethyl) amine], the Ki in assay [1] (setting [4]) was 1790 nM; in assay [2] (setting [5]), 886 nM. With `Cc1cc(CCC2CCC(CCNCCC3CCC(CCc4ccc(F)c(C)c4)O3)O2)ccc1F` (stereo not drawn) [N,N-bis(5′-(p-fluoro-m-methyl-phenethyl)-2′-tetra-hydro-furylethyl) amine], the Ki came out at 2380 nM in assay [1] (setting [4]) and 743 nM in assay [2] (setting [5]). The matching figures for `c1ccc(CC2CCC(CCNCCC3CCC(Cc4ccccc4)O3)O2)cc1` (stereo not drawn) [N,N-bis(5′-benzyl-2′-tetrahydro-furyl)-2-ethyl) amine]: 2260 nM and 937 nM. The matching figures for `CN(CCC1CCC(CCc2ccccc2)O1)CCC1CCC(CCc2ccccc2)O1` (stereo not drawn) [N,N-bis(5′-phenethyl-2′-tetra-hydro-furylethyl) methyl-amine]: 3690 nM and 730 nM.

Take `c1ccc(CCC2CCC(CCNCCC3CCC(CCc4ccccc4)O3)O2)cc1` (stereo not drawn) [N,N-bis(5′-phenethyl-2′-tetrahydro-furyl-ethyl) Amine]: the Ki in assay [1] (setting [4]) was 3470 nM; in assay [2] (setting [5]), 87 nM and 660 nM. On to `c1ccc(C2CCC(CCNCCC3CCC(c4ccccc4)O3)O2)cc1` (stereo not drawn) [N,N-bis(5′-phenyl-2′-tetrahydro-furyl-ethyl) amine], for which the Ki turned out to be 2020 nM in assay [1] (setting [4]) and 1090 nM in assay [2] (setting [5]).
